A short description of data set [1]: Systemic tolerance in mice. The format is in vivo. The following applies: mouse models. The method, then:
FIG. 9: EGFR specific TRAIL fusion proteins lack hepatotoxic activity. Groups of 3 CD1 mice were treated intraperitonally with indicated fusion proteins or control reagents: negative control: PBS; positive control: aggregated FasL (CD95L) fusion protein. • (A) Plasma samples were prepared after 4 h and 24 h and the activity of alanine aminotransferase (ALT) was assayed using an enzymatic assay (Bioo Scientific, Austin, Tex.). Dashed line indicates upper normal level of ALT (physiologic range in adult human: 35-50 U/L). (B) Mice were sacrificed after 24 h except for positive control (animals treated with an aggregated FasL (CD95L) fusion protein show phenotypic signs of severe systemic toxicity after 2-4 hrs and die after ˜5 hrs, samples were taken after 4 hrs) and liver biopsies were taken for determination of caspase-3 activity using a specific AMC-coupled peptide substrate (Enzo Lifesciences, Lörrach, Germany).
Dashed line indicates upper normal level of ALT (35-50 U/L). (B) Mice were sacrificed after 24 h except for pos. control (animals treated with an aggregated FasL fusion protein show phenotypic signs of severe systemic toxicity after 2-4 hrs and die after ˜5 hrs, samples were taken after 4 hrs) and liver biopsies were taken for determination of caspase-3 activity using a specific AMC-coupled peptide substrate.

Data set [2] has as its system Huh-7 hepatocellular carcinoma cells. Nature of the data set: Cell death in Huh-7 cells, constant protein concentration, serial dilutions of Bortezomib. The class given is cell-based. The method, then: FIG. 8: EGFR-directed induction of cell death in Huh-7 hepatocellular carcinoma cells as in FIG. 7 with the exception that constant concentrations of the test proteins were used for preincubation (30 min), followed by addition of serial dilutions of Bortezomib. Control: Bortezomib alone. Results from three independent experiments are shown (mean±S.E.M.).
As a positive control, cells were killed with 0.25% Triton X-100. Cell death assays with Huh-7 and HepG2 cells were performed in the absence (FIG. 6, Jurkat cells) or presence of Bortezomib (FIG. 7, Huh-7: 250 ng/ml, FIG. 6, HepG2: 500 ng/ml, FIG. 18, Huh-7: 250 ng/ml), Selleck Chemicals, Houston, Tex.). Bortezomib was added 30 min prior incubation with the proapoptotic ligands to sensitize cells for the induction of cell death (FIGS. 6, 7). Alternatively, cells were preincubated for 30 min with the indicated concentrations of TRAIL fusion proteins followed by addition of serial dilutions of Bortezomib (FIG. 8). TRAIL only treated cells are shown in each panel for the applied TRAIL concentration (Bortezomib 0 ng/ml) (FIG. 8). After 16 h incubation, cell viability was determined either by crystal violet staining (Huh-7, HepG2) or the MTT method (Jurkat) (Wuest et al., 2002). In the latter case a lysis buffer consisting of 15% SDS in DMF/H2O (1:1), pH 4.5 (with […]) acetic acid) was used.

The mark [3] stands for this setting: protein concentration of 0.05 nM.

B1: SEQ ID NO: 102: EGFR-specific VH-VL-scTRAIL fusion protein with linker L shortened to GGGGS; divalent, dimeric TRAIL fusion protein (protein)
chain: MDWTWRVFCLLAVAPGAHSLEASDYKDDDDKGAEVQLVESGGGLVQPGGSLRLSCAASGFSLTNYGVHWVRQAPGKGLEWLGVIWSGGNTDYNTPFTSRFTISRDNSKNTLYLQMNSLRAEDTAVYYCARALTYYDYEFAYWGQGTTVTVSSGGGGSDIQLTQSPSFLSASVGDRVTITCRASQSIGTNIHWYQQKPGKAPKLLIKYASESISGVPSRFSGSGSGTEFTLTISSLQPEDFATYYCQQNNNWPTTFGAGTKLEIKRAAAEFTRGTSEETISTVQEKQQNISPLVRERGPQRVAAHITGTRGRSNTLSSPNSKNEKALGRKINSWESSRSGHSFLSNLHLRNGELVIHEKGFYYIYSQTYFRFQEEIKENTKNDKQMVQYIYKYTSYPDPILLMKSARNSCWSKDAEYGLYSIYQGGIFELKENDRIFVSVTNEHLIDMDHEASFFGAFLVGGGGSGGGSTSEETISTVQEKQQNISPLVRERGPQRVAAHITGTRGRSNTLSSPNSKNEKALGRKINSWESSRSGHSFLSNLHLRNGELVIHEKGFYYIYSQTYFRFQEEIKENTKNDKQMVQYIYKYTSYPDPILLMKSARNSCWSKDAEYGLYSIYQGGIFELKENDRIFVSVTNEHLIDMDHEASFFGAFLVGGGGSGGGSTSEETISTVQEKQQNISPLVRERGPQRVAAHITGTRGRSNTLSSPNSKNEKALGRKINSWESSRSGHSFLSNLHLRNGELVIHEKGFYYIYSQTYFRFQEEIKENTKNDKQMVQYIYKYTSYPDPILLMKSARNSCWSKDAEYGLYSIYQGGIFELKENDRIFVSVTNEHLIDMDHEASFFGAFLVG
modifications: VH-VL(EGFR)-scTRAIL fusion protein
Turning to B1, the “dose systemically well tolerated” value in data set [1] is given as “up to 3 mg/kg”. For the same molecule, the “activity compared to other fusion proteins” value in data set [2] (0.01 nM of fusion proteins) was “Superior activity”. For the same molecule, in data set [2] (setting [3]), the “bioactivity compared to SEQ ID NO: 96” value is reported as “higher bioactivity compared to SEQ ID NO: 96” and the “synergy with Bortezomib” value is recorded as “able to synergize with Bortezomib”. Also, the “induction of apoptosis when sensitized with Bortezomib” value in data set [2] (protein concentration of 1 nM and above) is “nearly equally efficient in induction of complete apoptosis”.

For the origin of these results see patent US9822179B2, “Recombinant TNF ligand family member polypeptides with antibody binding domain and uses therefor” (UNIVERSITAT STUTTGART, priority 2011, dated 2017).
